System: red blood cells
Assay: Red blood cell hemolysis assay (PLC, MLC)
Assay type: cell-based

O=C(O)c1cn(C2CC2)c2cc(N3CCNCC3)c(F)cc2c1=O [Ciprofloxacin, reference compound]
Hemolysis PLC (concentration that led to 50% red blood cell lysis): >1 µg/mL
Hemolysis MLC (concentration that led to 100% red blood cell lysis): >1 µg/mL
Hemolysis MLC (mean lytic concentration): >1 µg/mL
Hemolysis PLC (partial lytic concentration, the concentration at which any hemolysis is observed): 1 µg/mL
Hemolysis MLC/MIC (ratio): >4
Hemolysis PLC/MIC (ratio): >4
MLC/MIC (ratio of mean lytic concentration to MIC): >8
PLC/MIC (ratio of partial lytic concentration to MIC): 8
